The nature of assay [1]: Selectivity index, ratio of Ki for human DHFR to Ki for Leishmania major PTR1.
The target in the next assay is T1, Pteridine reductase 1 (Leishmania major, UniProt Q01782).
T1 sequence (Q01782 whole entry): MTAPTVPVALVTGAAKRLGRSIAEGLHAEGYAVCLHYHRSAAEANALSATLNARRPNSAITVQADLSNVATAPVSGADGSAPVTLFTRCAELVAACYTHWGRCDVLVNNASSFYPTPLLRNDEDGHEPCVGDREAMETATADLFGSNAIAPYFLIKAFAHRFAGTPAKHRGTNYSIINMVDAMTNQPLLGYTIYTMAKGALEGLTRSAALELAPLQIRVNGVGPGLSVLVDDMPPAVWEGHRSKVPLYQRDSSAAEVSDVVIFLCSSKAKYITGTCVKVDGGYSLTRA

Structures are written as SMILES.

The values below come from ChEMBL document CHEMBL2176920, “Structure-based selectivity optimization of piperidine-pteridine derivatives as potent Leishmania pteridine reductase inhibitors” (J Med Chem, 2012).

As for `COC(=O)C1CCN(C(=O)c2ccc(N(C)Cc3cnc4nc(N)nc(N)c4n3)cc2)CC1`, the Ratio Ki in assay [1] was 21.

On to `CCOC(=O)CN(Cc1cnc2nc(N)nc(N)c2n1)c1ccc(C(=O)N2CCC(C(=O)OC)CC2)cc1`, for which the inhibition constant (Ki) on Pteridine reductase 1 was found to be 100 nM.

On to `COC(=O)C1CCN(C(=O)c2ccc(N(CCO)Cc3cnc4nc(N)nc(N)c4n3)cc2)CC1`, for which the affinity on Pteridine reductase 1 corresponds to a Ki of 30 nM.
